# Measured values from US20140323418A1 (published 2014).
# Target: full length active recombinant SYK enzyme (Homo sapiens, UniProt P43405)
# Test: Inhibition of Syk tyrosine phosphorylation activity (LANCE TR-FRET kinase assay)
row,SMILES,IC50 [nM]
1,"NC(=O)c1cnc(N[C@@H]2CCCCC2=O)nc1Nc1cccc(-n2nccn2)c1 [Example 164, (R)-4-(3-(2H-1,2,3-triazol-1-yl)phenylamino)-2-(2-oxocyclohexylamino)pyrimidine-5-carboxamide]",100 to 1000
2,"NC(=O)c1cnc(N[C@@H]2CCCC[C@@H]2N=O)nc1Nc1cccc(-n2nccn2)c1 [Example 176, 4-(3-(2H-1,2,3-triazol-1-yl)phenylamino)-2-((1R,2S)-2-nitrosocyclohexylamino)pyrimidine-5-carboxamide]",100 to 1000
3,Cc1cccc(Nc2nc(N[C@@H]3[C@H](F)CCC[C@@H]3N)ncc2C(N)=O)c1 (racemic) [Example 173],100 to 1000
